Test results as given in patent publication US12665203B2, “Organo-metallic analytes for nonaqueous redox flow batteries” (The Regents of the University of California, priority 2020, dated 2026).

Legend:
[1] = Solubility of complexes in MeCN by UV-Vis of saturated solutions; settings: saturated solution in MeCN
[2] = Stability of complex in acetonitrile; format: physicochemical; settings: MeCN

Cactive (solubility in MeCN) [1]	stability of complex in acetonitrile [2]	Substance
19.8 mM	–	(I2P2^−)(I2P^−)Al [compound 1]
97 mM and 96.7 ± 2.1 mM	–	[(I2P^−)2Al][PF6]
450-550 mM and 450-550 ^a mM	limited	[(I2P^−)(I2P)Al][AlCl4]2 [compound 3]

Several values for one entry are separate records, joined by “and”; a condition that tells them apart may be missing. Identical values can stand only once.
